Source: patent EP4831180A1, “NOVEL KINASE INHIBITOR” (dated 2026)

Chains of the proteins cited; added tags and fusions are not shown. Residues count along the entry.
UniProt Q9UM73, 19-1620 I1171N/D1203N limits assumed: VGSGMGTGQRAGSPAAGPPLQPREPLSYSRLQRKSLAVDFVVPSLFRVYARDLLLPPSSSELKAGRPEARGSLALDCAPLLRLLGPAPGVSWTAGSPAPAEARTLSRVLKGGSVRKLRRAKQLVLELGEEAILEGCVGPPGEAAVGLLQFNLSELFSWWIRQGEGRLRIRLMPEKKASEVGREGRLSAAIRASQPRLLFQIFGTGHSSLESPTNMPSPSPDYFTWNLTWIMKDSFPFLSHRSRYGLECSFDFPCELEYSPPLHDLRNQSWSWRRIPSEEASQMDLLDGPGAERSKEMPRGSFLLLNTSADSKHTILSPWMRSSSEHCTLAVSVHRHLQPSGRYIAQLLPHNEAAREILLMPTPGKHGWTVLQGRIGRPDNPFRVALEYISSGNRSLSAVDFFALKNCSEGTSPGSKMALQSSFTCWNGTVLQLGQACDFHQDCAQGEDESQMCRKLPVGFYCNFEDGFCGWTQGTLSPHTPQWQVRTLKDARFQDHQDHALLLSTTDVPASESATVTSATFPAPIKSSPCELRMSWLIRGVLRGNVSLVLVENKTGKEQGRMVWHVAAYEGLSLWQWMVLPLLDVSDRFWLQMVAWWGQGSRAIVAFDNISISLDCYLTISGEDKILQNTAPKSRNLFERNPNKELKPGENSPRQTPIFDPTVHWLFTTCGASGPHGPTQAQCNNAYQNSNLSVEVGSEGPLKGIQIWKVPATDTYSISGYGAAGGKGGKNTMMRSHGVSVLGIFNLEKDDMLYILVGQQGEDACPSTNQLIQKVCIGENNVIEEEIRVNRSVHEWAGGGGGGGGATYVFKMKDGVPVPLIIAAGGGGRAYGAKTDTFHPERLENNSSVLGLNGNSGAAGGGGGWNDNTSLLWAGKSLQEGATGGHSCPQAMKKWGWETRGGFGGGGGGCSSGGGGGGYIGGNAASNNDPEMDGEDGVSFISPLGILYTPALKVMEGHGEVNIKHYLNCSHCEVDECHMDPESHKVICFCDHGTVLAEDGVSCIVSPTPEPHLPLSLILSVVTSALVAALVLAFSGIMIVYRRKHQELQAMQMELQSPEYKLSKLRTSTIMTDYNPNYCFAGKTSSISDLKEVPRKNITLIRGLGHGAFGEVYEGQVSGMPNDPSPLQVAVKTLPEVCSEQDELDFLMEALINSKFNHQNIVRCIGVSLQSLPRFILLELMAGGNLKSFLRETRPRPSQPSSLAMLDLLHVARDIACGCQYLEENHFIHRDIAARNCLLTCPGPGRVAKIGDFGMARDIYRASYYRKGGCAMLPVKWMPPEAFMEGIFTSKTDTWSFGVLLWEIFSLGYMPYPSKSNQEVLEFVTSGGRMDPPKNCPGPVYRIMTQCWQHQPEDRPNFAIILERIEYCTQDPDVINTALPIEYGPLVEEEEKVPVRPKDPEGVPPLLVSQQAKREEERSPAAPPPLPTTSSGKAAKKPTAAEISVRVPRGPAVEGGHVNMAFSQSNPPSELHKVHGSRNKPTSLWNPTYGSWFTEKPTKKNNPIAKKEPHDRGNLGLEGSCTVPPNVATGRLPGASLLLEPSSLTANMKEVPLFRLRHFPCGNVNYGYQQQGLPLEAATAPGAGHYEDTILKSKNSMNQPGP
UniProt Q9UM73, 19-1620 L1196M/G1202R limits assumed: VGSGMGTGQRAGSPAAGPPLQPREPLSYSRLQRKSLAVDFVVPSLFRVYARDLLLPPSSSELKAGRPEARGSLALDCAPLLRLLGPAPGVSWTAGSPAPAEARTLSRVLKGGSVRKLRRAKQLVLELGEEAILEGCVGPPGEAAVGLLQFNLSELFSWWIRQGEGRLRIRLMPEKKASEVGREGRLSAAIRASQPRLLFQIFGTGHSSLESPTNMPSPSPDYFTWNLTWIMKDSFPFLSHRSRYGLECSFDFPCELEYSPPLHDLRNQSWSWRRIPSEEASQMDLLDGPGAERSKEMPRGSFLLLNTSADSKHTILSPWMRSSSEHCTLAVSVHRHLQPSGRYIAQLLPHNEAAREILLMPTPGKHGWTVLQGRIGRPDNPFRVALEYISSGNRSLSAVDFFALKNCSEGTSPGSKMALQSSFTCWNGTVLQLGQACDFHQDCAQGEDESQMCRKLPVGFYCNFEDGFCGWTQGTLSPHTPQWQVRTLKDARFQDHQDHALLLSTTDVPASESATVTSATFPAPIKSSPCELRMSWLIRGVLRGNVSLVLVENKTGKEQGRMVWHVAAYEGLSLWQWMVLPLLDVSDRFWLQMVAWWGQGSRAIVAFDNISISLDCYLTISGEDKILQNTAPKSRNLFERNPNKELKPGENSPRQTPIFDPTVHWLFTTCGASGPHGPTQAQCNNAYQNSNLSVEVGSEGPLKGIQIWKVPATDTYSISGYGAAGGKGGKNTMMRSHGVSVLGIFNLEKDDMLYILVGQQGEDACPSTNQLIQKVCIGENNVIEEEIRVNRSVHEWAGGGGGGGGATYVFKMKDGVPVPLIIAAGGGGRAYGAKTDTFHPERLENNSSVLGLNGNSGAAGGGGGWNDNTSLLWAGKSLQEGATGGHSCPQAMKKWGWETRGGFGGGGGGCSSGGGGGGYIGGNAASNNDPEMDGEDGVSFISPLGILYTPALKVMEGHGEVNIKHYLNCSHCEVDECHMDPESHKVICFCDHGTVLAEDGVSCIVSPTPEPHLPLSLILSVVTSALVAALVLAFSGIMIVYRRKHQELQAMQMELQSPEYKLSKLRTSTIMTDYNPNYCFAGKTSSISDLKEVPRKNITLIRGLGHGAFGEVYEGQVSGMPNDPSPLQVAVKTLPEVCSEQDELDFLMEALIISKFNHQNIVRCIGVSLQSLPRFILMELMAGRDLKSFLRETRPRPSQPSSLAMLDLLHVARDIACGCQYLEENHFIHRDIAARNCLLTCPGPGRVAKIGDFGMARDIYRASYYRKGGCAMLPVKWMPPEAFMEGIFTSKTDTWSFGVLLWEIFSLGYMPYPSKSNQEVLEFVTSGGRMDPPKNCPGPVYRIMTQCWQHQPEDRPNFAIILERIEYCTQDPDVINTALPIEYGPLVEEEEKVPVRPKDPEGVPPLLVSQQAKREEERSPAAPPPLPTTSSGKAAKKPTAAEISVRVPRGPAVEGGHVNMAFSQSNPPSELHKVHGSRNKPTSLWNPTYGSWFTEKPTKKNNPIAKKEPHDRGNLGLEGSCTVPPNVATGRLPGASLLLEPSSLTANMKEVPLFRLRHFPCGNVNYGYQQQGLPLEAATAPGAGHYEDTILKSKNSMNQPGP

Key:
[1] = target: His-ALK^G1202R/L1196M (Homo sapiens, UniProt Q9UM73, G1202R/L1196M); test: ALK G1202R/L1196M compound mutant kinase inhibitory activity assay (HTRF); details: read-out: ALK^G1202R/L1196M Enzyme, IC50, ATP 4 µM, enzyme 0.5 nM, 1 hour at 23 °C
[2] = system: Baf3 EML4-ALK V1^I1171N/D1203N cells; details: read-out: BaF3 EML4-ALK^I1171N/D1203N IC50; 3 days incubation, Cell-Titer Glo
[3] = target: His-ALK^I1171N/D1203N (Homo sapiens, UniProt Q9UM73, D1203N/I1171N); test: ALK I1171N/D1203N compound mutant kinase inhibitory activity assay (HTRF); details: read-out: ALK^I1171N/D1203N Enzyme, IC50, ATP 1 µM, enzyme 0.3 nM, 1 hour at 23 °C
[4] = system: Baf3 EML4-ALK V1^G1202R/L1196M cells; details: read-out: BaF3 EML4-ALK^G1102R/L1196M, IC50; 3 days incubation, Cell-Titer Glo

Compound | IC50 [1] [nM] | IC50 [2] [nM] | IC50 [3] [nM] | IC50 [4] [nM]
CCn1nc(C#CCNC)c2c1-c1cnc(N)c(c1)O[C@H](C)c1cc(F)ccc1-c1nn(C)cc1C2 | < 5 | < 10 | < 5 | < 10
CCn1nc(C#CCN2CCN(CCO)CC2)c2c1-c1cnc(N)c(c1)O[C@H](C)c1cc(F)ccc1-c1nn(C)cc1C2 | < 5 | < 10 | < 5 | < 10
CCn1nc(C#Cc2cnco2)c2c1-c1cnc(N)c(c1)O[C@H](C)c1cc(F)ccc1-c1nn(C)cc1C2 | < 5 | < 10 | < 5 | < 10
CCn1nc(C#Cc2ccc(CO)nc2)c2c1-c1cnc(N)c(c1)O[C@H](C)c1cc(F)ccc1-c1nn(C)cc1C2 | < 5 | < 10 | < 5 | < 10
CCn1nc(C#Cc2cncn2C)c2c1-c1cnc(N)c(c1)O[C@H](C)c1cc(F)ccc1-c1nn(C)cc1C2 | < 5 | < 10 | < 5 | < 10
CCn1nc(C#CCCN)c2c1-c1cnc(N)c(c1)O[C@H](C)c1cc(F)ccc1-c1nn(C)cc1C2 | < 5 | < 10 | < 5 | < 10
CCn1nc(C#Cc2ccc(=O)n(C)c2)c2c1-c1cnc(N)c(c1)O[C@H](C)c1cc(F)ccc1-c1nn(C)cc1C2 | < 5 | < 10 | < 5 | < 10
CCn1nc(C#CCC2(O)CCC2)c2c1-c1cnc(N)c(c1)O[C@H](C)c1cc(F)ccc1-c1nn(C)cc1C2 | < 5 | < 10 | < 5 | < 10
C=Cc1nn(CC)c2c1Cc1cn(C)nc1-c1ccc(F)cc1[C@@H](C)Oc1cc-2cnc1N | < 5 | < 10 | < 5 | < 10
CCn1nc(C#Cc2cncnc2)c2c1-c1cnc(N)c(c1)O[C@H](C)c1cc(F)ccc1-c1nn(C)cc1C2 | < 5 | < 10 | < 5 | < 10
CCn1nc(C#CC(C)(C)NS(C)(=O)=O)c2c1-c1cnc(N)c(c1)O[C@H](C)c1cc(F)ccc1-c1nn(C)cc1C2 | < 5 | < 10 | < 5 | < 10
CCn1nc(C#CC2COC2)c2c1-c1cnc(N)c(c1)O[C@H](C)c1cc(F)ccc1-c1nn(C)cc1C2 | < 5 | < 10 | < 5 | < 10
CCn1nc(C#CC2CCOC2)c2c1-c1cnc(N)c(c1)O[C@H](C)c1cc(F)ccc1-c1nn(C)cc1C2 (some centres unmarked) | < 5 | < 10 | < 5 | < 10
CCn1nc(C#C[C@H](C)O)c2c1-c1cnc(N)c(c1)O[C@H](C)c1cc(F)ccc1-c1nn(C)cc1C2 | < 5 | < 10 | < 5 | < 10
CCn1nc(C#C[C@@H](C)O)c2c1-c1cnc(N)c(c1)O[C@H](C)c1cc(F)ccc1-c1nn(C)cc1C2 | < 5 | < 10 | < 5 | < 10
CCn1nc(C#Cc2cnc(CO)nc2)c2c1-c1cnc(N)c(c1)O[C@H](C)c1cc(F)ccc1-c1nn(C)cc1C2 | < 5 | < 10 | < 5 | < 10
CCn1nc(C#CC2CCOCC2)c2c1-c1cnc(N)c(c1)O[C@H](C)c1cc(F)ccc1-c1nn(C)cc1C2 | < 5 | < 10 | < 5 | < 10
CCn1nc(C#CC2CCCO2)c2c1-c1cnc(N)c(c1)O[C@H](C)c1cc(F)ccc1-c1nn(C)cc1C2 (some centres unmarked) | < 5 | < 10 | < 5 | < 10

Compound | IC50 [1] [nM] | IC50 [2] [nM] | IC50 [3] [nM] | IC50 [4] [nM]
CCn1nc(C#CC2CCN(S(C)(=O)=O)CC2)c2c1-c1cnc(N)c(c1)O[C@H](C)c1cc(F)ccc1-c1nn(C)cc1C2 | < 5 | < 10 | < 5 | < 10
CCn1nc(C#CC2CNCCO2)c2c1-c1cnc(N)c(c1)O[C@H](C)c1cc(F)ccc1-c1nn(C)cc1C2 (some centres unmarked) | < 5 | < 10 | < 5 | < 10
CCn1nc(C#CCN2CCN(C3CC3)CC2)c2c1-c1cnc(N)c(c1)O[C@H](C)c1cc(F)ccc1-c1nn(C)cc1C2 | < 5 | < 10 | < 5 | < 10
CCn1nc(C#CCN2CCOCC2)c2c1-c1cnc(N)c(c1)O[C@H](C)c1cc(F)ccc1-c1nn(C)cc1C2 | < 5 | < 10 | < 5 | < 10
CCn1nc(C#C[C@@H]2CCOC2)c2c1-c1cnc(N)c(c1)O[C@H](C)c1cc(F)ccc1-c1nn(C)cc1C2 | < 5 | < 10 | < 5 | < 10
CCn1nc(C#CCCC(C)(C)O)c2c1-c1cnc(N)c(c1)O[C@H](C)c1cc(F)ccc1-c1nn(C)cc1C2 | < 5 | < 10 | < 5 | < 10
CCn1nc(C#CC(=O)N2CCN(C)CC2)c2c1-c1cnc(N)c(c1)O[C@H](C)c1cc(F)ccc1-c1nn(C)cc1C2 | < 5 | < 10 | < 5 | < 10
CCn1nc(C#CC2(O)CC2)c2c1-c1cnc(N)c(c1)O[C@H](C)c1cc(F)ccc1-c1nn(C)cc1C2 | < 5 | < 10 | < 5 | < 10
CCn1nc(C#CCCF)c2c1-c1cnc(N)c(c1)O[C@H](C)c1cc(F)ccc1-c1nn(C)cc1C2 | < 5 | < 10 | < 5 | < 10
CCn1nc(C#CC2COCCN2)c2c1-c1cnc(N)c(c1)O[C@H](C)c1cc(F)ccc1-c1nn(C)cc1C2 (some centres unmarked) | < 5 | < 10 | < 5 | < 10
(19R)-3-ethyl-16-fluoro-5-(((2S)-1,4-oxaazacyclohexan-2-yl)ethynyl)-10,1 9-dimethyl-20-oxa-3,4,10,11,23-pentaazapentacyclo[19.3.1.0^2,6.0^8,12.0^13,18]pentacosa-1(25),2(6), 4,8(9),11,13(14),15,17,21(22),23-decaen-22-amine | < 5 | < 10 | < 5 | < 10
CCn1nc(C#CCN2CCN(C)CC2)c2c1-c1cnc(N)c(c1)O[C@H](C)c1cc(F)ccc1-c1nn(C)cc1C2 | < 5 | < 10 | < 5 | < 10
CCn1nc(C#CCN(C)C)c2c1-c1cnc(N)c(c1)O[C@H](C)c1cc(F)ccc1-c1nn(C)cc1C2 | < 5 | < 10 | < 5 | < 10
CCn1nc(C#CC2CCCCN2)c2c1-c1cnc(N)c(c1)O[C@H](C)c1cc(F)ccc1-c1nn(C)cc1C2 (some centres unmarked) | < 5 | < 10 | < 5 | < 10
CCn1nc(C#CCCOC)c2c1-c1cnc(N)c(c1)O[C@H](C)c1cc(F)ccc1-c1nn(C)cc1C2 | < 5 | < 10 | < 5 | < 10
CCn1nc(C#CC2CC(C)(O)C2)c2c1-c1cnc(N)c(c1)O[C@H](C)c1cc(F)ccc1-c1nn(C)cc1C2 (some centres unmarked) | < 5 | < 10 | < 5 | < 10
CCn1nc(C#CC(=O)N2CCOCC2)c2c1-c1cnc(N)c(c1)O[C@H](C)c1cc(F)ccc1-c1nn(C)cc1C2 | < 5 | < 10 | < 5 | < 10
